# Measured values from the supplement of paper PMC7366291.
# ± gives the standard deviation or the standard deviation of the averaged measurements. The lowest values were mostly taken out for another list; the other results follow.
# How the values were obtained:
# Conditions in all cases: 25 µM; exposure: 24-48 hpf
# [1] = system: Danio rerio Tg(wt1b:EGFP) embryo, pronephros; assay: fraction of imaged embryos annotated as normal kidney; higher = less nephrotoxic
# How it was run: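 Dechorionated Tg(wt1b:EGFP) zebrafish embryos were exposed in 12-well plates to 25 μM compound in 0.5% DMSO, 5 mM HEPES-buffered E3 with 0.003% PTU, from 24 to 48 hpf at 28.5°C. Tricaine-anaesthetised larvae were oriented dorsally in agarose-filled 96-well plates, and pronephroi were imaged by widefield fluorescence (470 nm, 10 z-slices). Each embryo was manually annotated from maximum projections. The read-out is the fraction of embryos per treatment assigned to the normal-kidney category.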
# [2] = system: Danio rerio Tg(wt1b:EGFP) embryo, pronephros; assay: glomerular separation, fold change vs DMSO control; higher = glomeruli further apart (abnormal)
# How it was run: (§1)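 Dechorionated Tg(wt1b:EGFP) zebrafish embryos were kept from 24 to 48 hpf at 28.5°C in HEPES-buffered E3 containing 0.003% PTU, 0.5% DMSO and 25 μM compound. The pronephroi were then imaged from the dorsal side in agarose-filled 96-well plates at 470 nm with 10 z-slices, and 16 reference points were placed by hand on maximum projections in Fiji so that a macro could calculate distances and angles. Values lying more than 2 SD from the mean of a feature were discarded. Every feature is given as a fold change against the mean of DMSO-treated embryos from the same day.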
# [3] = system: Danio rerio Tg(wt1b:EGFP) embryo, pronephros; assay: glomerular width (mean of left and right), fold change vs DMSO control; higher = wider glomerulus
# How it was run: as §1
# [4] = system: Danio rerio Tg(wt1b:EGFP) embryo, pronephros; assay: pronephric angle neck segment to proximal convoluted tubule (mean of left and right), fold change vs DMSO control; higher = larger pronephric angle
# How it was run: as §1
smiles,measurement,setting,value
COc1cc(Br)c(C[N+]2(CCOCCC3CCC4CC3C4(C)C)CCOCC2)cc1OC (centres undefined) [Pinaverium bromide],fraction of imaged embryos annotated as normal kidney,[1],0.75
same,glomerular separation,[2],1.07 ± 0.65
same,glomerular width,[3],1.052 ± 0.009
same,pronephric angle neck segment,[4],1.003 ± 0.0023
